How the values were obtained:
[1] = target: δ-opioid receptor (Mus musculus, UniProt P32300); experiment: [35S]GTPγS binding assay in NG108-15 cell membranes (delta opioid functional assay); assay type: biochemical
[2] = target: delta opioid receptor (Rattus norvegicus, UniProt P33533); experiment: Rat brain delta opioid receptor binding assay; details: read-out: δ-binding (Naltrindole ligand) Ki; [3H]naltrindole ligand
Method: Procedure: Male, Wistar rats (150-250 g, VAF, Charles River, Kingston, N.Y.) were killed by CO2, and their brains were removed and placed immediately in ice cold Tris HCl buffer (50 mM, pH 7.4). The forebrains were separated from the remainder of the brain by a coronal transection, beginning dorsally at the colliculi and passing ventrally through the midbrain-pontine junction. After dissection, the forebrains were homogenized in Tris buffer in a Teflon®-glass homogenizer. The homogenate was diluted to a concentration of 1 g of forebrain tissue per 80 mL Tris and centrifuged at 39,000×g for 10 min. The pellet was resuspended in the same volume of Tris buffer containing 5 mM MgCl2 with several brief pulses from a Polytron homogenizer. […] To each sample area 2×50 μL of Betaplate Scint scintillation fluid (LKB) was added and the radioactivity was quantified on a LKB (Wallac) 1205 BetaPlate liquid scintillation counter.
Analysis: The data from the scintillation counter were used to calculate either the % inhibition compared to control binding (when only a single concentration of test compound was evaluated) or a Ki value (when a range of concentrations was tested). Percent inhibition was calculated as: [(total dpm−test compound dpm)/(total dpm−nonspecific dpm)]*100. Kd and Ki values were calculated using GraphPad PRISM data analysis program.

Chains of the proteins cited; added tags and fusions are not shown.
UniProt P33533, whole entry: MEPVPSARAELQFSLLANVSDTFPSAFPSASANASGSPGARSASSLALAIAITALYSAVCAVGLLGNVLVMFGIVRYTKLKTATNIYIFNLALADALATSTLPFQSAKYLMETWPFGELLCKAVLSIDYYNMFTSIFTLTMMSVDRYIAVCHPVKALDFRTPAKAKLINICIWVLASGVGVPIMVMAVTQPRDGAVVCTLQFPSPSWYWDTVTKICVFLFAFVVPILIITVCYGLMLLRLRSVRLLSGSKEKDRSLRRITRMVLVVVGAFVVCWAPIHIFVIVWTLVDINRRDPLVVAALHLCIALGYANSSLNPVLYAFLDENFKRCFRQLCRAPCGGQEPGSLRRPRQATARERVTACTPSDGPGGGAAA

Question: c1ncc(-c2cnc(NC[C@@H]3CCCN3)c(Oc3ccc4occc4c3)n2)cn1 was tested. Which “GTPγS δ-RelEfficacy @200 nM” value ([1]; 200 nM compound, relative to calculated max of SNC80 dose response) did it give?
Answer: The value was 0.5502.

Question: And the EC50 ([1]; read-out: GTPγS δ-opioid receptor EC50)?
Answer: Its EC50 is 79.3 nM.

Question: What about the Ki [2] of the same compound?
Answer: Its Ki is 1.3 nM.

Source: US8183371B2, “Pyrazines as delta opioid receptor modulators” (Janssen Pharmaceutica NV, priority 2009, dated 2012)
